This is an account of results in patent publication CN101062949A.

Sequences of proteins named here, by UniProt entry; tags and fusion partners are left off. A line that says so, or that is headed by a name, gives the form on record, which may keep a tag or linker.
UniProt P01854, other isoform, or with tags, fused parts or gaps: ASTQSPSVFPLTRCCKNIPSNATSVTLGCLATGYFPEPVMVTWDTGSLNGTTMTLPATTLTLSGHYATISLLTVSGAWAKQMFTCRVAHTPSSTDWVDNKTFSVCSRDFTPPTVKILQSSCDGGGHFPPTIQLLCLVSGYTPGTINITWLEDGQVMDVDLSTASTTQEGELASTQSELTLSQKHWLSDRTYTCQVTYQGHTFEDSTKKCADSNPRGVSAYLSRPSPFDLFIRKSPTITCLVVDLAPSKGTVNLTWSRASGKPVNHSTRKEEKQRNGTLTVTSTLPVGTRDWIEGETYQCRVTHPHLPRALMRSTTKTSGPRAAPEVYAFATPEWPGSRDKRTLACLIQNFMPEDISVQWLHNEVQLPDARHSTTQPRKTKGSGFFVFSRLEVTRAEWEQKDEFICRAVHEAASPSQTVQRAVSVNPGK

The experiment deals with 人IgE (细胞系CRL-8033分泌表达) (human) (UniProt P01854). Kind of experiment: cell-based or functional assay.

Xolair (Omalizumab) (antibody) registered a 加入Xolair后释放组胺浓度(ng/ml), 样品浓度0.25 μg/ml, 均数 of 74.4 ng/mL; a 加入Xolair后释放组胺浓度(ng/ml), 样品浓度0.25 μg/ml, 孔1 of 73.3 ng/mL; a 加入Xolair后释放组胺浓度(ng/ml), 样品浓度0.25 μg/ml, 孔2 of 75.4 ng/mL; a 加入Xolair后释放组胺浓度(ng/ml), 样品浓度2.5 μg/ml, 均数 of 69.4 ng/mL. For the same substance, the 加入Xolair后释放组胺浓度(ng/ml), 样品浓度2.5 μg/ml, 孔1 stood at 68.6 ng/mL; the 加入Xolair后释放组胺浓度(ng/ml), 样品浓度2.5 μg/ml, 孔2 was 70.1 ng/mL; the 加入Xolair后释放组胺浓度(ng/ml), 样品浓度25.00 μg/ml, 均数 stood at 41.8 ng/mL; the 加入Xolair后释放组胺浓度(ng/ml), 样品浓度25.00 μg/ml, 孔1 was found to be 43.5 ng/mL. In addition, the 加入Xolair后释放组胺浓度(ng/ml), 样品浓度25.00 μg/ml, 孔2 was 40.1 ng/mL; the 加入Xolair后释放组胺浓度(ng/ml), 样品浓度250.00 μg/ml, 均数 turned out to be 12.5 ng/mL; the 加入Xolair后释放组胺浓度(ng/ml), 样品浓度250.00 μg/ml, 孔1 turned out to be 13.2 ng/mL; the 加入Xolair后释放组胺浓度(ng/ml), 样品浓度250.00 μg/ml, 孔2 was 11.7 ng/mL. Also, the 加入Xolair后释放组胺浓度(ng/ml), 样品浓度2500.00 μg/ml, 均数 is 11.9 ng/mL; the 加入Xolair后释放组胺浓度(ng/ml), 样品浓度2500.00 μg/ml, 孔1 was determined as 11.3 ng/mL; the 加入Xolair后释放组胺浓度(ng/ml), 样品浓度2500.00 μg/ml, 孔2 came to 12.5 ng/mL.
